Test results published in PubChem BioAssay AID488840 (Broad Institute, 2010).
Only a part is listed here, and it is no random draw. Entries with a potency or affinity are not part of this list. The source made the active and inactive calls.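 The calls were made as follows: active = half-maximal dose of signal decrease from fit no higher than ten times the top valid tested dose; inconclusive = fit invalid, or curve flat with 30 to 70% inhibition; inactive = the rest.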

Protein sequences, listed by entry. Tags and fused reporters are not part of them. Lines headed by an entry give the natural chain unless they say otherwise; changes in a name come on top.
UniProt O75164: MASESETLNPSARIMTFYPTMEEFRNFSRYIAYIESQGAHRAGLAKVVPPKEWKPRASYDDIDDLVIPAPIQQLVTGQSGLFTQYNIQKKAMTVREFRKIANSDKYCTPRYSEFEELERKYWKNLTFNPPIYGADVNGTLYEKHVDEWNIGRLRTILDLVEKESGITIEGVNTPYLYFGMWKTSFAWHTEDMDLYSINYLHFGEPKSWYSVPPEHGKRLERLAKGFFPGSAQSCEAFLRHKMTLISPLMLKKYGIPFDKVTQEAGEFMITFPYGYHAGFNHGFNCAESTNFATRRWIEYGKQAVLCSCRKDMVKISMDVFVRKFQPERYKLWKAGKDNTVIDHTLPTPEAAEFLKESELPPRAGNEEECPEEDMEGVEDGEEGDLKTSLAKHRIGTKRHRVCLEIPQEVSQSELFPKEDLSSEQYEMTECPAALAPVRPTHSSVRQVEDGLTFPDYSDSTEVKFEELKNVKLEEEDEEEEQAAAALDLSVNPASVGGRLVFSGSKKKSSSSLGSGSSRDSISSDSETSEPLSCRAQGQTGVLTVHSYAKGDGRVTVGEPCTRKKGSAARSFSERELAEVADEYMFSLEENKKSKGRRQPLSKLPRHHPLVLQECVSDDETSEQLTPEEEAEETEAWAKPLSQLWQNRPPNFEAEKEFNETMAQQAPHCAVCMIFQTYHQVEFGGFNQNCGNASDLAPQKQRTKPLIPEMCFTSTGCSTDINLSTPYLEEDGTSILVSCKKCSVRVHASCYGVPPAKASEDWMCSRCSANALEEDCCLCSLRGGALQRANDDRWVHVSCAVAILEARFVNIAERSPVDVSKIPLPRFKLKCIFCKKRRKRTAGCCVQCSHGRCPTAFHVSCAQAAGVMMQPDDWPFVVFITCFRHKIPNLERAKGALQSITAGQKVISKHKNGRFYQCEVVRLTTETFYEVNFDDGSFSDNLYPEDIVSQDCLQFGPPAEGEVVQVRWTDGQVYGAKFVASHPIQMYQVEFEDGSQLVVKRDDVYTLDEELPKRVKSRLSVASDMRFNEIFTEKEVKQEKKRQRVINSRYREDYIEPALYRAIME

What follows are molecules tested against Lysine-specific demethylase 4A (Homo sapiens) (UniProt O75164) (assay: JMJD2A histone demethylase inhibitors, dose response, selectivity assay for GASC-1 inhibitor project, biochemical, DELFIA europium, cherry-picked samples (AID 488840;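 also: europium signal reports the dimethyl H3K9 product detected by antibody so inhibitors lower it; 0% = median of neutral control wells and -100% = median of positive control wells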)). Conditions: GST-JMJD2A(1-420) H3K9me3 demethylation; at 6 µM (top of the series).

SMILES | activity change, negative = inhibition
Cc1ccc(OCC(=O)OC2CN3CCC2CC3)cc1 (stereo unspecified) | inactive: -0.0755%
